Data: publication PMC12367838, “Relevance of kinetic interactions and co-formulants for plant protection product liver toxicity in vitro” (Archives of Toxicology, 2025)
Values joined by “and” are separate entries in the source; they are usually repeats but may differ in a detail not shown here. Equal values may be shown once.

Columns and labels:
[1] = test system: HepaRG cells; assay: AdipoRed triglyceride accumulation assay; assay type: cell-based, human; settings: for Relative triglyceride accumulation: 72 h, related to medium control
Method: Different elements of the liver steatosis AOP were evaluated in this study. Transcriptomics was employed as a tool to investigate the expression of liver steatosis-related genes that occur either as MIE (genes related to NR activation) or molecular and cellular KEs. In addition to gene expression, lipid accumulation in HepaRG cells was conducted to cover molecular KEs. Considering that upstream MIEs occur earlier than subsequent downstream KEs (Alarcan et al. [2021]), we applied different time points (24 h for transcriptomics and 72 h for lipid accumulation) to reflect the temporal relationships between biological events.
HepaRG cells were treated in 96-well plates for 72 h with eight different concentrations of the above-mentioned test compounds, with the highest concentration of each being the highest non-cytotoxic concentration. The synthetic LXR and FXR agonist, T0901317, was used as a positive control at a concentration of 10 µM. After the 72-h incubation, cells were washed with 200 µL phosphate-buffered saline (PBS), and then 200 µL PBS containing 5 µg/mL Hoechst 33,342 (Thermo Fisher Scientific; Waltham, Massachusetts, USA) was added to each well. Thereafter, 5 µL of the AdipoRed reagent was added to each well, and the plates were incubated at 37 °C for 10 min. Subsequently, the fluorescence of AdipoRed was measured at λexc = 485 nm/λemi = 572 nm, and Hoechst 33,342 was measured at λexc = 350 nm/λemi = 451 nm on the Infinite M200 PRO plate reader (Tecan; Männedorf, Switzerland). AdipoRed signals were normalized to Hoechst 33,342 signals to compensate for variations in cell number. Relative triglyceride levels were referred to untreated cells. Each concentration was measured in three technical replicates. Three independent biological replicates were performed (n = 3) and means as well as SD were calculated.
A linear mixed-effects ANOVA (α = 0.05) described by Pinheiro and Bates ([2000]) followed by a post-hoc Dunnett test for multiple comparisons of treatment groups versus the control was used for statistical analysis of data from cytotoxicity assay, AdipoRed assay, CYP450 inhibition assay as well as mixture effects. R studio (ver. 4.4.1) was used to determine the effective concentration at relative triglyceride induction fold of 1.5 for each test compound.

[2] = test system: HepaRG cells; assay: Total RNA sequencing, differential gene expression; settings: 24 h, vs solvent control
[3] = high sub-cytotoxic concentration
[4] = low sub-cytotoxic concentration

CC1COC(Cn2cncn2)(c2ccc(Oc3ccc(Cl)cc3)cc2Cl)O1 (stereo not drawn) [DIF, difenoconazole]
Relative triglyceride accumulation ([1]; 1.00 mg/L): 1.0 | Relative triglyceride accumulation ([1]; 1.30 mg/L): 1.0 | Relative triglyceride accumulation ([1]; 1.60 mg/L): 1.0 | Relative triglyceride accumulation ([1]; 2.00 mg/L): 1.0 | Relative triglyceride accumulation ([1]; 2.50 mg/L): 1.1 | Relative triglyceride accumulation ([1]; 3.10 mg/L): 1.2 | Relative triglyceride accumulation ([1]; 3.90 mg/L): 1.4 | Relative triglyceride accumulation ([1]; 4.90 mg/L): 1.7 | EC1.5-fold (effective concentration at 1.5 relative triglyceride induction fold) ([1]; HepaRG cells, 72-h incubation): 4.21 mg/L | ACOX1 Fold change [2, 3]: 0.9829 | AHR Fold change [2, 3]: 1.458 | CD36 Fold change [2, 3]: 0.6936 | CYP1A1 log2FoldChange [2, 3]: 2.823 | CYP1A2 Fold change [2, 3]: ≈ 0.2 and 0.214 | CYP1A2 log2FoldChange [2, 3]: -2.225 | CYP2B6 Fold change [2, 3]: 1.562 | CYP2B6 log2FoldChange [2, 3]: 0.6435 | CYP2C9 Fold change [2, 3]: ≈ 0.2 and 0.2217 | CYP2C9 log2FoldChange [2, 3]: -2.173 | CYP2C19 Fold change [2, 3]: ≈ 0.2 and 0.2778 | CYP2C19 log2FoldChange [2, 3]: -1.848 | CYP2D6 Fold change [2, 3]: 1.334 | CYP2D6 log2FoldChange [2, 3]: 0.4154 | CYP3A4 Fold change [2, 3]: 0.8345 | CYP3A4 log2FoldChange [2, 3]: -0.2611 | FASN Fold change [2, 3]: 0.7942 | INSIG1 Fold change [2, 3]: ≈ 0.48 and 0.4832 | MLXIPL Fold change [2, 3]: 1.187 | NR1H2 Fold change [2, 3]: 1.8177 | NR1H4 Fold change [2, 3]: 0.7549 | NR1I2 Fold change [2, 3]: 1.237 | NR1I3 Fold change [2, 3]: ≈ 0.37 and 0.3714 | NR3C1 Fold change [2, 3]: 1.332 | PPARA Fold change [2, 3]: 0.8085 | PPARG Fold change [2, 3]: ≈ 5.3 and 5.354 | RARA Fold change [2, 3]: 1.363 | RARB Fold change [2, 3]: 2.059 | RARG Fold change [2, 3]: 1.079 | SCD Fold change [2, 3]: 0.5986 | SREBF1 Fold change [2, 3]: ≈ 0.50 and 0.4955 | ACOX1 Fold change [2, 4]: 1.1295 | AHR Fold change [2, 4]: 0.9145 | CD36 Fold change [2, 4]: 1.838 | CYP1A1 Fold change [2, 4]: 2.608 | CYP1A1 log2FoldChange [2, 4]: 1.383 | CYP1A2 Fold change [2, 4]: 1.311 | CYP1A2 log2FoldChange [2, 4]: 0.3911 | CYP2B6 Fold change [2, 4]: 1.21 | CYP2B6 log2FoldChange [2, 4]: 0.2748 | CYP2C9 Fold change [2, 4]: 0.7593 | CYP2C9 log2FoldChange [2, 4]: -0.3972 | CYP2C19 Fold change [2, 4]: 1.047 | CYP2C19 log2FoldChange [2, 4]: 0.06625 | CYP2D6 Fold change [2, 4]: 0.8535 | CYP2D6 log2FoldChange [2, 4]: -0.2285 | CYP3A4 Fold change [2, 4]: 1.931 | CYP3A4 log2FoldChange [2, 4]: 0.9497 | FASN Fold change [2, 4]: 1.357 | INSIG1 Fold change [2, 4]: 2.034 | MLXIPL Fold change [2, 4]: 1.109 | NR1H2 Fold change [2, 4]: 1.133 | NR1H4 Fold change [2, 4]: 1.108 | NR1I2 Fold change [2, 4]: 1.316 | NR1I3 Fold change [2, 4]: 0.7655 | NR3C1 Fold change [2, 4]: 0.8639 | PPARA Fold change [2, 4]: 1.056 | PPARG Fold change [2, 4]: 1.185 | RARA Fold change [2, 4]: 1.086 | RARB Fold change [2, 4]: 1.283 | RARG Fold change [2, 4]: 1.052 | SCD Fold change [2, 4]: 1.481 | SREBF1 Fold change [2, 4]: 0.6957
